Assay results taken from patent US11318103B2, “Treating soft tissue via controlled drug release” (University of Pittsburgh—Of the Commonwealth System of …, priority 2014, dated 2022).

Experiments:
[1] = tested on: muscle-derived multipotent progenitor cells (MPC); assay: MPC osteogenesis in 2D, alizarin red staining; assay type: cell-based, human; conditions: BMP+ medium, no dorsomorphin, especially at 7 weeks
Protocol: FIG. 10 is microtopographs showing inhibition of muscle-derived multipotent progenitor cells (MPC) osteogenesis in 2D by 2.5 nM of dorsomorphin (DM) as shown by alizarin red staining (magnification 10×). Osteogenesis was induced by addition of BMP to the medium.
Heterotopic ossification (HO), the formation of mature bone in the soft tissues, is a frequent complication following trauma. The pathogenesis of HO is not well understood, but is hypothesized to involve an inappropriate cellular response to the inflammatory environment and specific osteogenic signals therein. We have previously isolated and characterized a population of mesenchymal progenitor cells (MPCs) derived from human blast-traumatized muscle (BDM-MSC) that may represent the cellular component of the disease.
Inhibition of muscle-derived multipotent progenitor cells (MPC) osteogenesis in 2D by dorsomorphin (DM) (2.5 mM) as shown by alizarin red staining (Mag=10×) is shown in FIG. 10. MPCs from the same donor were plated and cultured in different conditions. […] Cells were assessed for osteogenesis/calcification at 1, 3, 5, and 7 weeks. Osteogenesis/deposition of calcium was assessed by alizarin red staining, a common histological staining procedure.

[2] = tested on: bone marrow-derived mesenchymal stem cells (BMD-MSCs); assay: BMD-MSC osteogenesis in 2D culture, alizarin red staining; assay type: cell-based; conditions: BMP exposure alone, 21 days
Protocol: FIGS. 11A and 11B are microphotographs of bone marrow-derived mesenchymal stem cells (BMD-MSCs) showing inhibition of BMD-MSC osteogenesis in 2D culture by dorsomorphin (DM). Phase contrast images of alizarin red stained cultures treated with BMP, DM, and BMP+DM as compared to control and DM cultures.
Phase contrast images of alizarin red stained cultures treated with BMP (B), DM, and BMP+DM (D) as compared to control (A) and DM (C) cultures. The test was performed as the one in FIG. 10 but using bone marrow-derived MSCs and with a sole time point of 21 days.

[3] = tested on: BMP2-induced MPC heterotopic ossification; assay: Heterotopic ossification in hind limbs of SCID mice injected with MPC+BMP2+/-DM, bone volume by μCT; assay type: in vivo; conditions: injection of 25 ng/ml BMP with MPC, no DM
Text: FIG. 12 is bone volume, determined by μCT, formed ectopically in the hind limbs of SCID mice injected with MPC+BMP2+/−dorsomorphin (DM). DM was delivered in colution (sDM) or in micro particles (mpDM). Representative μCT 3D reconstructions of heterotopic ossification (HO) inhibition of BMP2-stimulated MPC osteogenesis in vivo by dorsomorphin. […] All scans were normalized to the device hydroxyapatite standard (in vivo μCT 40; ScanCo).
Formation of ectopic bone nodules in the hind limbs of SCID mice injected with MPC+BMP2+/−DM. DM was delivered in solution or in micro particles. The DM was loaded into PLGA microparticles. Bone volume is determined by μCT.
Micro-CT 3D reconstructions HO lesions in vivo following injection of (A) MPC/BMP2+DM in microparticles (mp), (B) MPC/BMP2+ soluble (s) DM, and (C) MPC/BMP2 alone. All scans were normalized to the device hydroxy apatite standard (in vivo μCT 40; ScanCo).
Mp DM stands for microparticles containing dorsomorphin. […] A microparticles release system is then necessary for dorsomorphin to be effective. The microparticles were loaded as described in the previous protocol and are particles from the same batch from which particles were taken to perform the release profile in FIG. 4.

ectopic bone nodules = assay: Ectopic bone nodules in hind limbs of SCID mice injected with MPC or HFF +/-BMP2, bone volume by μCT; assay type: in vivo
Text: FIG. 9 is a graph of bone volume determined by μCT in an in vivo mouse model. Formation of ectopic bone nodules in the hind limbs of SCID mice injected with muscle-derived multipotent progenitor cells (MPC) with or without BMP2 as compared to those injected with human foreskin fibroblasts (HFF) with or without BMP2, at 1, 2, 4 and 6 weeks.
Formation of ectopic bone nodules in the hind limbs of SCID mice injected with MPC+/−BMP2 as compared to those injected with human foreskin fibroblasts (HFF)+/−BMP2 is shown in FIG. 9. Bone volume is determined by μCT. Injection of collagen served as a negative control.

B1: BMP: bone morphogenetic protein, a strong inducer of osteogenesis added to medium or injected (protein, UniProt P12643 283-396, looked up)
Bone morphogenetic protein 2: QAKHKQRKRLKSSCKRHPLYVDFSDVGWNDWIVAPPGYHAFYCHGECPFPLADHLNSTNHAIVQTLVNSVNSKIPKACCVPTELSAISMLYLDENEKVVLKNYQDMVVEGCGCR
- osteogenesis/calcification (alizarin red) [1]: induced a strong osteogenic/calcification phenotype
- calcium deposition (alizarin red) [2]: induced a strong calcium deposition
- MPC osteogenesis within the muscle tissue [3]: induces MPC osteogenesis within the muscle tissue
- HO lesions (bone volume by μCT) (ectopic bone nodules; BMP alone, after 6 weeks, compared to samples with MPCs present): significantly reduced
- osteogenesis (bone volume by μCT) (ectopic bone nodules; BMP alone, week 2 and 4 after injection): levels comparable to that measured in MPC+BMP injected samples
- osteogenesis (bone volume by μCT) (ectopic bone nodules; MPC+BMP2 compared with HFF+BMP2): induces significantly more osteogenesis by MPCs than HFF
